Tests used:
[1] = tested on: BL-2 cells; assay: Viability of suspension BL-2 cells (MTT); format: cell-based
Method: The suspension of BL-2 cells in the RPMI 1640 medium containing 5% FBS (for 24- and 48 h assays) or 10% FBS (for 96 h assays) 1% L-glutamine, and 1% penicillin/streptomycin was spread in the wells of a 96-well microtiter plate. Every plate contained 50,000 cells (with the exception of the 96h-experiment, for which 25,000 cells were used) per well per 100 μL. Stock solutions of prodrugs of different concentrations (1 μL, solvent DMSO) were added to the wells and incubated for 24–96 h. Four experiments were conducted for each concentration of the prodrug. Finally, 3-(4,5-dimethylthiazol-2-yl)-2,5-diphenyltetrazolium bromide (MTT; 20 μL of the solution prepared by dissolving MTT (5 mg) in PBS buffer (1 mL)) was added to each well, incubated for 3 h, treated with sodium dodecyl sulfate (SDS) solution (90 μL, 10% solution in 0.01 M aqueous HCl), and incubated overnight. Then the intensity of absorbance at 590 nm was measured (MTT is converted to blue dye (λmax = 590 nm) in live cells). The absorbance at 690 nm was taken as a baseline value.

[2] = tested on: BL-2 cells; assay: ROS-amplification in BL-2 cells (CM-DCFH-DA, flow cytometry); format: cell-based; details: 2 h, 37 °C, CM-DCFH-DA probe
Method: The cells were centrifuged (5 min; 1000 rpm), washed with DPBS (2 × 10 mL) and the suspension at cell density of 10^6 cells/mL in DPBS was prepared. 5(6-)chloromethyl-2′,7′-dichlorodihydrofluorescein diacetate (CM-DCFH-DA) in DMSO (8.7 µL, stock solution 10 mM) was added into 8.7 mL of cell solution to have 10 µM final concentration. The cells were incubated in the dark chamber supplemented by 5% CO2 at 37 °C for 15 min. Then, the cells were centrifuged, washed with DPBS (1× 10 mL) and resuspended in opti-MEM medium by maintaining the cell concentration at 10^6 cells/mL. The cell suspension was split into portions as 200 µL in each. […] After 120 min of incubation in the dark chamber filled with 5% CO2 at 37 °C, the mean fluorescence of live cells (λex = 488 nm, λem = 530 nm) in the suspensions was determined by using the flow cytometer. All samples were applied in triplicates within the assay and the results were calculated based on three independent assays. Prodrug 7 contributes to the fluorescence signal derived from CM-DCFH-DA (λex = 488 nm, λem = 530 nm). This background signal was quantified by doing the same experiment as described above, but in the absence of CM-DCFH-DA (Figure 3B). Then we subtracted this background signal from that obtained in the presence of CM-DCFH-DA to obtain the corrected ROS-mediated fluorescence increase of CM-DCFH-DA probe (Figure 3C).

[3] = tested on: Jurkat cells; assay: Cell cycle of Jurkat cells; format: cell-based, human; details: 48 h, concentrations causing no cell death
[4] = Generation of ROS in cell free settings (2′,7′-dichlorofluorescin oxidation in the presence of H2O2); details: compound 49.5 μM, DCFH 10 μM, H2O2 10 mM, GSH 5 mM, EDTA 10 mM, MOPS buffer, 37 °C
Method: 2′,7′-Dichlorofluorescin diacetate (DCFH-DA, 4.9 mg) was dissolved in 100 µL DMF and mixed with 0.1 M NaOH (900 µL). This mixture was incubated on a shaker for 30 min at 25 °C in the dark to obtain 10 mM 2′,7′-dichlorofluorescin (DCFH) stock solution. Next, 3-(N-morpholino)propanesulfonic acid buffer (MOPS buffer 100 mM, pH: 7.4) containing N,N,N’,N’-ethylenediaminetetraacetic acid (EDTA, 10 mM), glutathione (GSH, 5 mM) and H2O2 (10 mM) was prepared. Finally, DCFH was diluted in this buffer to 10 µM as the final concentration. Monitoring of the fluorescence was started (λex: 501 nm, λem: 525 nm). After 5 min, the compound was added to have a final concentration of 50 µM. DMF and FeSO4 in DMF were used as controls. The measurement was conducted for 300 min (Table S2, Figure 1A).

[5] = tested on: Jurkat cells; assay: Viability and cell death of Jurkat cells (Annexin A5-FITC/PI flow cytometry); format: cell-based, human
Method: Jurkat cells were counted in MUSE Cell Analyzer using MUSE® Count &Viability Assay Kit (Merck-Millipore, Billerica, MA, USA) and adjusted to a density of 1.0 × 10^5/mL in RPMI 1640 medium (with 10% FCS and 1% glutamine). A total of 9000 cells per well per 90 μL were seeded into 96 well culture plates. The 50 mM prodrug stock solutions were diluted to 300, 100, 30, and 10 μM in cell culture medium and 10 μL of the dilutions was pipetted to the cells, receiving final test concentrations of 30, 10, 3, and 1 μM. Every concentration was tested in triplicates. Cells with corresponding amounts of DMSO served as negative controls. […] was incubated with 200 μL of freshly prepared staining solution, consisting of 1 μl Annexin A5-Fitc, 0.4 μL 1,1′,3,3,3′,3′-hexamethylindodicarbocyanine iodide (DiIC1(5)) (both from Thermo Fisher Scientific, Waltham, MA, USA), 66.6 ng propidiumiodide (PI) and 33 μM monobromobimane (MBB, both from Sigma-Aldrich, Taufkirchen, Germany) per 1 mL Ringer’s solution (Fresenius Kabi AG, Bad Homburg, Germany). Cells were incubated for 20 min at 4 °C and then analyzed in Gallios cytofluorometer™ (Beckman Coulter, Fullerton, CA, USA). Fitc and propidium iodide were excited at 488 nm; Fitc fluorescence was recorded on the FL1 sensor (525/38 nm band pass, BP) and propidium iodide fluorescence was detected on FL3 sensor (620/30 nm BP), DiIC1(5) fluorescence was excited at 638 nm and detected on FL6 sensor at 675/20 nm. Monobromobimane fluorescence was excited at 405 nm and detected on FL9 sensor at 430/40 nm. To eliminate any fluorescence bleed-through, electronic compensation was used. Data were analyzed employing Kaluza™ software Version 1.2 (Beckman Coulter, Fullerton, CA, USA) and processed in Microsoft Excel. […] IC50 values were determined by fitting the % values of Ax-PI- cells versus drug concentration with a sigmoidal curve using GraphPad Prism software. Reduced glutathione (an intracellular thiol) can be detected by monobromobimane, a dye that becomes fluorescent after non-enzymatic binding to thiols. […]

[6] = tested on: DU-145 cells; assay: Viability of adherent DU-145 cells (MTT); format: cell-based, human
Method: (§1) Adherent A2780, DU-145 and NHDF cells were grown as mentioned before. Then, the cells were resuspended in the RPMI 1640 (DMEM for HDFa cell line) medium containing 5% FBS (for 24- and 48 h assays) or 10% FBS (for 96 h assays) 1% L-glutamine, and 1% penicillin/streptomycin. This suspension was spread in the wells of a 96-well microtiter plate. Every well in the plates contained 25,000 cells (exceptions: 12,500 cells for the 96h-assay and 10,000 cells for experiments with HDFa cell line) per well per 100 μL and was left at 37 °C in the chamber filled with CO2 (5%) overnight. Stock solutions of prodrugs of different concentrations (1 μL, solvent DMSO) were added to the wells and incubated for 24–96 h. Four experiments were conducted for each concentration of the prodrug. Finally, 3-(4,5-dimethylthiazol-2-yl)-2,5-diphenyltetrazolium bromide (MTT; 20 μL of the solution prepared by dissolving MTT (5 mg) in PBS buffer (1 mL)) was added to each well, incubated for 3 h, treated with sodium dodecyl sulfate (SDS) solution (90 μL, 10% solution in 0.01 M aqueous HCl), and incubated overnight. Then the intensity of absorbance at 590 nm was measured (MTT is converted to blue dye (λmax = 590 nm) in live cells). The absorbance at 690 nm was taken as a baseline value.

[7] = tested on: Jurkat cells; assay: Mitochondrial membrane potential of Jurkat cells (DiIC1(5)); format: cell-based, human; details: 48 h; 5 at nontoxic concentrations ≤ 10 μM; 12 at all tested concentrations
Method: (§2) Jurkat cells were counted in MUSE Cell Analyzer using MUSE® Count &Viability Assay Kit (Merck-Millipore, Billerica, MA, USA) and adjusted to a density of 1.0 × 10^5/mL in RPMI 1640 medium (with 10% FCS and 1% glutamine). A total of 9000 cells per well per 90 μL were seeded into 96 well culture plates. The 50 mM prodrug stock solutions were diluted to 300, 100, 30, and 10 μM in cell culture medium and 10 μL of the dilutions was pipetted to the cells, receiving final test concentrations of 30, 10, 3, and 1 μM. Every concentration was tested in triplicates. Cells with corresponding amounts of DMSO served as negative controls. […] Cells were incubated for 20 min at 4 °C and then analyzed in Gallios cytofluorometer™ (Beckman Coulter, Fullerton, CA, USA). Fitc and propidium iodide were excited at 488 nm; Fitc fluorescence was recorded on the FL1 sensor (525/38 nm band pass, BP) and propidium iodide fluorescence was detected on FL3 sensor (620/30 nm BP), DiIC1(5) fluorescence was excited at 638 nm and detected on FL6 sensor at 675/20 nm. Monobromobimane fluorescence was excited at 405 nm and detected on FL9 sensor at 430/40 nm. To eliminate any fluorescence bleed-through, electronic compensation was used. Data were analyzed employing Kaluza™ software Version 1.2 (Beckman Coulter, Fullerton, CA, USA) and processed in Microsoft Excel. […]

[8] = tested on: A2780 cells; assay: Viability of adherent A2780 cells (MTT); format: cell-based, human
Method: as §1

[9] = Solubility of prodrugs in aqueous buffers (absorbance at 790 nm); format: physicochemical; details: RPMI medium containing 20% FBS and DMSO (1%, v/v)
Method: Prodrugs 5, 7 and 9 (known control) were dissolved in DMSO at concentrations of 15, 10, 5, 2, 1.5, 1, and 0.2 mM. These solutions (10 μL) were transferred to quartz cuvettes containing 990 μL of either Dulbecco's phosphate-buffered saline (DPBS) or Roswell Park Memorial Institute (RPMI) medium containing 20% of fetal bovine serum (FBS) to obtain solutions (or suspensions) with final concentrations of prodrugs-150, 100, 50, 20, 15, 10, and 2 μM. The absorbance at 790 nm of the resulting solutions/suspensions was measured and plotted as a function of the concentration of prodrugs. Mixtures absorbing <0.04 ([…] nm) for FBS and 0.034 ([…] nm) for DPBS appeared transparent and were considered as true solutions.

[10] = tested on: Jurkat cells; assay: Intracellular glutathione content of viable Jurkat cells (monobromobimane); format: cell-based, human; details: 48 h, concentrations causing no cell death
Method: as §2

[11] = tested on: HDFa cells; assay: Viability of adherent HDFa cells (MTT); format: cell-based, human; details: 48 h incubation; normal cells
Method: as §1

CC1(C)OB(c2ccc(COC(=O)N(Cc3cn(CCCC[P+](c4ccccc4)(c4ccccc4)c4ccccc4)nn3)[c-]3cccc3)cc2)OC1(C)C.[Fe+2].[I-].c1cc[cH-]c1 [prodrug 5]
IC50 ([1]; 24 h incubation): 5 ± 1 µM | IC50 ([1]; 48 h incubation): 5 ± 1 µM | IC50 ([1]; 96 h incubation): 8 ± 1 µM | ROS amplification in BL-2 cells (in words) [2]: weaker ROS amplifier in BL-2 cells than non-targeted NAAF-prodrug 9 | Effect on cell cycle [3]: does not affect | Initial rate (dF/dt)0 of DCFH oxidation in the presence of H2O2 [4]: 7.7 a.u. × min^−1 | IC50 ([5]; 24 h incubation): 20 ± 3 µM | Mechanism of cell death of Jurkat cells ([5]; 48 h, Ax/PI staining): mostly via necrosis | IC50 ([5]; 48 h incubation): 20 ± 2 µM | IC50 ([6]; 24 h incubation): 20 ± 3 µM | IC50 ([6]; 48 h incubation): 10 ± 2 µM | IC50 ([6]; 96 h incubation): 10 ± 2 µM | Effect on mitochondrial potential of Jurkat cells [7]: significant increase of the mitochondrial potential | IC50 ([8]; 24 h incubation): 10 ± 3 µM | IC50 ([8]; 48 h incubation): 5 ± 2 µM | IC50 ([8]; 96 h incubation): 5 ± 2 µM | Solubility in FBS [9]: 130 + 17 μM | Effect on intracellular concentration of glutathione [10]: does not affect | IC50 [11]: 18 ± 5 µM

Source: publication PMC7321169, “N-Alkylaminoferrocene-Based Prodrugs Targeting Mitochondria of Cancer Cells” (Molecules, 2020)
